Source: article PMC6928210, “Structural basis of methotrexate and pemetrexed action on serine hydroxymethyltransferases revealed using plant models” (Scientific Reports, 2019)
Like-named read-outs stand apart in the source and are kept apart here.

Assays:
AtSHMT2 = biological target: T1, AtSHMT2 (Arabidopsis thaliana, UniProt Q94C74); test: SHMT forward reaction (serine + THF), coupled assay, initial velocity; type: biochemical; settings: 30 °C, read-out: KiTHF (THF substrate inhibition constant)
T1 construct: the protein N-truncated at E41; The open reading frames coding for AtSHMT2 41–517 fragment; His6 (N, cleaved yes); made in house; host or cells: E. coli BL21 Gold
T1 sequence (Q94C74 41-517): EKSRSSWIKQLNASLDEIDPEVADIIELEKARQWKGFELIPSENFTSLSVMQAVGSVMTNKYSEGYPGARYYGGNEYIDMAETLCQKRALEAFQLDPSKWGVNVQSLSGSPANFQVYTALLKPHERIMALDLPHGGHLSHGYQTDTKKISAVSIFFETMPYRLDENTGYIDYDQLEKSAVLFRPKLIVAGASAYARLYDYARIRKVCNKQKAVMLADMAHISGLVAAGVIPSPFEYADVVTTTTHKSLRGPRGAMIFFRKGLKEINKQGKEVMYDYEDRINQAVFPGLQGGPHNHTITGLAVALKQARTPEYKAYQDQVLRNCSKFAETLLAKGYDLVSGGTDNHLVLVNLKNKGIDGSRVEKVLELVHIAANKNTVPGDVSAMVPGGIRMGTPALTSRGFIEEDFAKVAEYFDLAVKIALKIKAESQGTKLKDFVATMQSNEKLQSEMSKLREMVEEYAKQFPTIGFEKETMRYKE

AtSHMT4 = biological target: T2, AtSHMT4 (Arabidopsis thaliana, UniProt O23254); test: as above; type: biochemical; settings: 30 °C, read-out: KiTHF (THF substrate inhibition constant)
T2 construct: The open reading frames coding for AtSHMT2 41–517 fragment and full-length AtSHMT4 were amplified; His6 (N, cleaved yes); made in house; host or cells: E. coli BL21 Gold
T2 sequence (O23254 1-471): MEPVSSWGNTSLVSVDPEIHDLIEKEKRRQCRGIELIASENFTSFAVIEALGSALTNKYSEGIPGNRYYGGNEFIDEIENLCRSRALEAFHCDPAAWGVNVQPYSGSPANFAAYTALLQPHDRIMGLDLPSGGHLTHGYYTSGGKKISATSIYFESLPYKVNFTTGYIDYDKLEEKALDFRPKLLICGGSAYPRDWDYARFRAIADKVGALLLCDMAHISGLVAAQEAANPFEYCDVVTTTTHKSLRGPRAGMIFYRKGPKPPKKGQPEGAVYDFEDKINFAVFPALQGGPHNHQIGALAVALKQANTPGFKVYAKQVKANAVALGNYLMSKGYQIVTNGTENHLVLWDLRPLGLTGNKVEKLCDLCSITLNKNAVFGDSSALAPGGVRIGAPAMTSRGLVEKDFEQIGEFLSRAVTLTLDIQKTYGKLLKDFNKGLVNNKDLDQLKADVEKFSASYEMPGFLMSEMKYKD

tetrahydrofolate [THF]
Ki (AtSHMT2; AtSHMT2, pH 6.5, 30 mM L-serine fixed): 189 ± 12.8 µM | Ki (AtSHMT2; AtSHMT2, pH 7, 30 mM L-serine fixed): 191 ± 9.5 µM | Ki (AtSHMT2; AtSHMT2, pH 8, 30 mM L-serine fixed): 186 ± 11.7 µM | Ki (AtSHMT2; AtSHMT2, pH 8.5, 30 mM L-serine fixed): 152 ± 8.7 µM | Ki (AtSHMT2; AtSHMT2, pH 9.5, 30 mM L-serine fixed): 127 ± 5.5 µM | Ki (AtSHMT4; AtSHMT4, pH 6.5, 30 mM L-serine fixed): 48.1 ± 9.69 µM | Ki (AtSHMT4; AtSHMT4, pH 7, 30 mM L-serine fixed): 57.5 ± 6.56 µM | Ki (AtSHMT4; AtSHMT4, pH 8, 30 mM L-serine fixed): 141 ± 23.2 µM | Ki (AtSHMT4; AtSHMT4, pH 8.5, 30 mM L-serine fixed): 163 ± 26 µM | Ki (AtSHMT4; AtSHMT4, pH 9.5, 30 mM L-serine fixed): 288 ± 39.2 µM
